# Earlier results in patent US7422793B2, “Non-toxic corrosion-protection rinses and seals based on rare earth elements” (University of Dayton, priority 2002, dated 2008).
# Conditions: pH 7; cited from earlier work
row,Substance,Solubility in Water
1,Ammonium tetrafluoroborate,2.4 × 10^0 mole/L
2,Antimony (III) fluoride,0.315 mol/L
3,Cobalt (II) fluoride,0.155 mol/L
4,Copper (II) fluoride,0.462 mol/L
5,Silver (I) fluoride,14.3 mol/L
6,Sodium germanate,1.55 × 10^0 mole/L
7,Sodium periodate,0.67 mol/L
8,Sodium tetrafluoroborate,9.8 × 10^0 mole/L
9,Tin (II) fluoride,0.1 mol/L
